Measured values published in patent publication US5236918A, “6-aryl-3-cyanaminopyridazines, their preparation and use and medicaments containing them” (BYK Gulden Lomberg Chemische Fabrik GmbH, priority 1989, dated 1993).

The chains behind the UniProt entries cited, without tags or fusion partners. Where a name states a change or a piece, a line headed by the entry shows the natural chain unless it says otherwise.
UniProt Q14432: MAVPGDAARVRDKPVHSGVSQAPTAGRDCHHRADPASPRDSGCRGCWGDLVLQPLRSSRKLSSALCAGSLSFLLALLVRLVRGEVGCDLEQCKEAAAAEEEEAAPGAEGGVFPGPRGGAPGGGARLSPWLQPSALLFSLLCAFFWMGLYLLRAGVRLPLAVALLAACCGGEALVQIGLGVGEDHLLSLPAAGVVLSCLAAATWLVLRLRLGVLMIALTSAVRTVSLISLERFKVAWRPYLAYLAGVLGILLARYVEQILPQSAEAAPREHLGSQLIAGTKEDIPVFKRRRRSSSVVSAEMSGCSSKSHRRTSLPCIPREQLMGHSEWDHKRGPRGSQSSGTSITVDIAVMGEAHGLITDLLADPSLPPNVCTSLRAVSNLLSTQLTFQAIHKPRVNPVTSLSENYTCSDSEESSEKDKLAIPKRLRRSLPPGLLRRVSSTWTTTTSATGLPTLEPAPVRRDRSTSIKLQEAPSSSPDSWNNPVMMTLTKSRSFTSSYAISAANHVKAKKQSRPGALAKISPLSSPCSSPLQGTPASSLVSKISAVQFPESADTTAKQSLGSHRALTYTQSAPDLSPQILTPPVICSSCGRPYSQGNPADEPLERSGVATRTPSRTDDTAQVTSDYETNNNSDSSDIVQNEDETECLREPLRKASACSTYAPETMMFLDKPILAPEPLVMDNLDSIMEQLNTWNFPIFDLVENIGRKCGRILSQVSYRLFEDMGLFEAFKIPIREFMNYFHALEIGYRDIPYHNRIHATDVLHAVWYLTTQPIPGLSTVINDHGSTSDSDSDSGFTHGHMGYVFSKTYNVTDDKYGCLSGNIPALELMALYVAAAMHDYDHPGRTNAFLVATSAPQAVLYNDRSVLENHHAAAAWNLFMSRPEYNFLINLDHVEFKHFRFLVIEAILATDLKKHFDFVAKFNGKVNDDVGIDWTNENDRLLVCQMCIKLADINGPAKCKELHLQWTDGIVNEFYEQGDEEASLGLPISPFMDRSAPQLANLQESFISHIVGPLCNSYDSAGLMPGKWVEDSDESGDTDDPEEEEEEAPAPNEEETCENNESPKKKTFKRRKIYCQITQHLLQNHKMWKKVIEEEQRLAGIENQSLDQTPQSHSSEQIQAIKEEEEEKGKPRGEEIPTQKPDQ

Target: T1, PDE III (Homo sapiens, UniProt Q14432)
T1 construct: PDE III isolated from human platelets; from tissue; host or cells: human platelets
Assay: inhibition of PDE III isolated from human platelets
Assay type: biochemical
Description: The inhibition of phosphodiesterases of classes III (PDE III=high-affinity cAMP-PDE which can be inhibited by cGMP) and IV (PDE IV=high-affinity cAMP-PDE which cannot be inhibited by cGMP, Rolipram-sensitive) is regarded as being particularly conclusive for a bronchospasmolytic and/or antiinflammatory action which may be expected [H. Hidaka et al., Adv. Cycl. Nucl. Res. 13, 145 (1984); Tips 5, 237 (1984); R. Weishaar et al., J. Med. Chem. 28, 537 (1985); S. A. Harrison et al., Molec. Pharmac. 29, 506 (1986); J. Klein-Tebbe et al., Allergologie 12, 12 (1989); C. Schudt et al., Allergologie 12, 12 (1989)].
The PDE inhibition of the compounds according to the invention was therefore determined on a PDE III isolated from human platelets and PDE IV isolated from human neutrophilic polymorphonuclear cells (PMNs) and from the canine trachea. The phosphodiesterases III and IV are isolated by chromatography by the method of Polson et al., Biochem. Pharmacol. 31, 3403-3406 (1982).
The substances are dissolved in DMSO and diluted further. From a series of solutions diluted up to a hundred-fold, 2.1 μl portions are taken and 212 μl reaction mixture are added. […]
The reaction is started by addition of 10 μl PDE to the reaction mixture and to the substance batch. […] The adenosine formed remains in the supernatant after centrifugation and can be measured in an aliquot by the radioactivity contained therein.

Compound: Cn1c(=O)c2[nH]cnc2n(C)c1=O [Theophylline, theophylline, reference compound]
- IC50: 162 µM
